Reference: patent US20210163536A1

Amino acid sequences for entries named in this document (tags omitted). A change or cut given only in a name is not applied to a line headed by its entry.
UniProt Q01726: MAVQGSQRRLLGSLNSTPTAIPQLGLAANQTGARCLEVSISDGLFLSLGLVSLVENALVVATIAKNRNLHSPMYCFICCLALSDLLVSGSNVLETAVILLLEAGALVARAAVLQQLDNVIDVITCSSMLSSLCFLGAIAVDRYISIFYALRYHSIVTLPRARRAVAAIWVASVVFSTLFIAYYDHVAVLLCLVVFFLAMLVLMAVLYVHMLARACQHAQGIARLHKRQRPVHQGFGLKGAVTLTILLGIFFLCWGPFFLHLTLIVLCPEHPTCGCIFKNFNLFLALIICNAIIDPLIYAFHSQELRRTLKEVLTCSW
UniProt P41968: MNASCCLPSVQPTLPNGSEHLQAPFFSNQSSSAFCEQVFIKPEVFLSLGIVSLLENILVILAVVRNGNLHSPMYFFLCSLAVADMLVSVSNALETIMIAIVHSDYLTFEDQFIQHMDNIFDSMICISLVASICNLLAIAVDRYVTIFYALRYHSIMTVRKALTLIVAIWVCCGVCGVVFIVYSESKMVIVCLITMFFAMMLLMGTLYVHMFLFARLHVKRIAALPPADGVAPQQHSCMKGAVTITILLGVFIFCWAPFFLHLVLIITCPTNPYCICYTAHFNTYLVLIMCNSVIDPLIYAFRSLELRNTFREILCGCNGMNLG
UniProt P32245, whole entry: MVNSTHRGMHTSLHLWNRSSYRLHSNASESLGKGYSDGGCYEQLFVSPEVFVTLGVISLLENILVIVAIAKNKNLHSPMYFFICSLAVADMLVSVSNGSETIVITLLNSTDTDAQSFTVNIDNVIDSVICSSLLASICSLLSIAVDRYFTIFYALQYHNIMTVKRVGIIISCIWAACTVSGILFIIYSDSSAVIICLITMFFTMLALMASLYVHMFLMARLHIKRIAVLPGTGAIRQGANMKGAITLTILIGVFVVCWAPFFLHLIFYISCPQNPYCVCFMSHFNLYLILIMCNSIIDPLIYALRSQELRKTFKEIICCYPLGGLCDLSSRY
UniProt P33032: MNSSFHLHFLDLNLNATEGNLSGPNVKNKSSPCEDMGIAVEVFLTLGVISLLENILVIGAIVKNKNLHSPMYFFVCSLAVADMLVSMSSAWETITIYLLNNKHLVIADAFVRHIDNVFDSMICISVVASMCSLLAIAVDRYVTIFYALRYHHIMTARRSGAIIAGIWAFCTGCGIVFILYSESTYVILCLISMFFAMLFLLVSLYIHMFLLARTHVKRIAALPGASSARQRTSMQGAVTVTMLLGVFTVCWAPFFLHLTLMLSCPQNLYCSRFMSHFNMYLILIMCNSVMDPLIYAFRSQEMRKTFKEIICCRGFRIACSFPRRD

How the values were obtained:
Assay in all cases: competition with [125I]-NDP-alpha-MSH, CHO-K1 cell membranes
[1] = molecular target: human melanocortin-1 receptor (human) (UniProt Q01726)
[2] = molecular target: human melanocortin-3 receptor (human) (UniProt P41968)
[3] = molecular target: human melanocortin-4 receptor (human) (UniProt P32245)
[4] = molecular target: human melanocortin-5 receptor (human) (UniProt P33032)

Row | Ki [1] [nM] | Ki [2] [nM] | Ki [3] [nM] | Ki [4] [nM] | Substance
1 | 127 | 811 | 10.4 | 381 | Hydantoin(C(O)-(Gly-Gly))-cyclo(Cys-D-Ala-His-D-Phe-Arg-Trp-Pen)-NH2 (peptide)
2 |  |  |  | 1100 | cyclo[Hydantoin(C(O)-(Asp-Apc))-D-2-Nal-Arg-Trp-Lys]-NH2 (peptide)
3 |  | 38.5 |  |  | Hydantoin(C(O)-(Nle-Gly))-cyclo(Cys-D-Ala-His-D-Phe-Arg-Trp-Pen)-NH2 (peptide)
4 |  |  |  | 1100 | cyclo[Hydantoin(C(O)-(Asp-A5c))-D-2-Nal-Arg-Trp-Lys]-NH2 (peptide)
